Assay results taken from article PMC4740242 (Cell reports, 2016).

Sequences of proteins named here, by UniProt entry; tags and fusion partners are left off. Residues count along the entry.
UniProt P10721, 26-976 V559D/V654A: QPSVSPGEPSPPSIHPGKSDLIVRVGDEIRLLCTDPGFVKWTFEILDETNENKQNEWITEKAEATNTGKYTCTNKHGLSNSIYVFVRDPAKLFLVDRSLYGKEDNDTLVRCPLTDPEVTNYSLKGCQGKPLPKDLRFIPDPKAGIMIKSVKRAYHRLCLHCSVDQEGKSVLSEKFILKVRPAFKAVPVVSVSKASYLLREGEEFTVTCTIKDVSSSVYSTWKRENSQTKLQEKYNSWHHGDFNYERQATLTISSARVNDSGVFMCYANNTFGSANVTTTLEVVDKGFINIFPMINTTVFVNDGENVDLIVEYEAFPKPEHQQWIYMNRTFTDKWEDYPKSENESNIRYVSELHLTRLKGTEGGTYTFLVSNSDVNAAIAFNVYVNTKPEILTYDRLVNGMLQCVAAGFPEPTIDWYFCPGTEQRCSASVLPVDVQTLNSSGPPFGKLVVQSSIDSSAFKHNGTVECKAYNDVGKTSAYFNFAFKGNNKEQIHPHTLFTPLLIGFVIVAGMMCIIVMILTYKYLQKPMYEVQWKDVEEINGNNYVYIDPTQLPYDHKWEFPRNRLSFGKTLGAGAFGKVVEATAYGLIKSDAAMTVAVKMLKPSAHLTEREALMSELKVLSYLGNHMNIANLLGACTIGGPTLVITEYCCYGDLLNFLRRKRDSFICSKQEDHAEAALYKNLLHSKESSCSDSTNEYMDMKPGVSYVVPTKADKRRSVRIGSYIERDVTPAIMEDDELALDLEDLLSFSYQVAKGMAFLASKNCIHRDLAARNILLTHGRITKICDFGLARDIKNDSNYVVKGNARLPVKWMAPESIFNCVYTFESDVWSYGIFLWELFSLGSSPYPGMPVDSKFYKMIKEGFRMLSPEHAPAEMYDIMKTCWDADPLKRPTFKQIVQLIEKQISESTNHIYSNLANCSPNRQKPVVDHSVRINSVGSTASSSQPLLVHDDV

Biological target: C-KIT V559D/V654A (Homo sapiens, UniProt P10721, V559D/V654A)
Assay: HotSpot kinase assay, C-KIT V559D/V654A
Assay type: biochemical
Conditions: at 500 nM

- kinase inhibition (in words): moderate kinase inhibition
Structure (SMILES): Cc1ccc(NC(=O)c2ccc(CN3CCN(C)CC3)cc2)cc1Nc1nc(-c2cccnc2)cs1 [masitinib]
